The list shows a part of the results, in another mix than the full data. Some structures have more than one record in an assay (separate samples or runs), and their calls can disagree. Activity calls are given as the source filed them. No stated cut-off is given here; in the data, active means growth inhibition above about 70%; inactive means the rest.

A short description of the test: NCI Yeast Anticancer Drug Screen. Data for the rad14 strain (AID 159).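 Further: 0% = growth of vehicle-treated control cultures.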 Particulars: S. cerevisiae rad14 strain growth inhibition, active compounds read high. The protocol: Growth inhibition of yeast strains with defined genetic alterations is measured as a screen for potential anti-cancer activity. Selected strains with alterations in DNA damage repair or cell cycle control were exposed to compounds and growth inhibition was measured relative to vehicle treated controls. The strain used in this assay is rad14

For the compound `ClCCN1CCCCC1CCl` (stereo not given), the growth inhibition was inactive: -1% (at 1.2 µM); inactive: 2% (at 3.7 µM); inactive: 16% (at 11.0 µM); inactive: 65% (at 33.0 µM); active: 95% (at 100.0 µM).
In the case of `Cc1cccc(C[N+](C)(CCCl)CCCl)c1[N+](=O)[O-]`, the growth inhibition by setting is: (at 1.2 µM) inactive: -10%; (at 3.7 µM) inactive: 8%; (at 11.0 µM) active: 79%; (at 33.0 µM) active: 94%; (at 100.0 µM) active: 95%.
The matching figures for `Cc1ccc([N+](=O)[O-])c(C[N+](C)(CCCl)CCCl)c1`: inactive: -20%, inactive: 17%, active: 80%, active: 93% and active: 95%.
On the same counts, the results for `Cn1cnc([N+](=O)[O-])c1C[N+](C)(CCCl)CCCl` are inactive: -21%, inactive: -8%, inactive: 45%, active: 83% and active: 90%.
On to `COc1ccc([N+](=O)[O-])c(C[N+](C)(CCCl)CCCl)c1`, for which the growth inhibition reads like this: (at 1.2 µM) inactive: -6%; (at 3.7 µM) inactive: -8%; (at 11.0 µM) inactive: 16%; (at 33.0 µM) active: 81%; (at 100.0 µM) active: 93%.
On the same counts, the results for `COc1ccc(C[N+](C)(CCCl)CCCl)c([N+](=O)[O-])c1` are inactive: 11%, inactive: 13%, inactive: 28%, inactive: 45% and inactive: 47%.
